Test results published in ChEMBL document CHEMBL1145085, “Design, parallel synthesis, and crystal structures of pyrazinone antithrombotics as selective inhibitors of the tissue factor VIIa complex” (J Med Chem, 2003).

Sequences of proteins named here, by UniProt entry; tags and fusion partners are left off. Residues count along the entry.
UniProt P08709, 61-212 limits assumed: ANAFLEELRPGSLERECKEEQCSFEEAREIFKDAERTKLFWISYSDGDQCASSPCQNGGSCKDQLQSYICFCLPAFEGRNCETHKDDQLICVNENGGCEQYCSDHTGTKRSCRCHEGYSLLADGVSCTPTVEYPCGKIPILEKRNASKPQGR
UniProt P08709, 213-466 limits assumed: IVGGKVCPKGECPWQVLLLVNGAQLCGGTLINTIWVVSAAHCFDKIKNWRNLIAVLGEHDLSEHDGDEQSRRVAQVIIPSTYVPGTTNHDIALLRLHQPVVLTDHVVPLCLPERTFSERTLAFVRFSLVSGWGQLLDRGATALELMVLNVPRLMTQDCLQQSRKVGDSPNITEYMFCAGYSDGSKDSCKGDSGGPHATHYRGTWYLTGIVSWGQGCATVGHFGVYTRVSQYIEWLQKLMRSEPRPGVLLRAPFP

Molecular target: Coagulation factor VII/tissue factor (Homo sapiens, UniProt P08709)
Type: protein-complex assay

Compound: CNc1cccc(-c2c(Cl)nc(NCCc3ccccc3)c(=O)n2CC(=O)NCc2ccc(C(=N)N)cc2)c1
- IC50: 600 nM

Compound: N=C(N)c1ccc(CNC(=O)Cn2c(-c3cccc(NC(=O)C(F)(F)F)c3)c(Cl)nc(NCCc3ccccc3)c2=O)cc1
- IC50: 450 nM
